# Measured values published in PubChem BioAssay AID1217 (Sanford-Burnham Center for Chemical Genomics, 2008).
# The entries are a selection whose mix differs from that of the whole data set. Some results for these compounds are left out of this collection, so the calls shown say nothing about other tests. The source made the active and inactive calls.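 The calls were made as follows: active = primary screen inhibition at 20 µM above a set limit (cut at about 50% in these data); inactive = the rest.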
# Tested on: diaphorase (Clostridium kluyveri)
# Test: compounds blocking diaphorase resazurin reduction – biochemical, uHTS, resorufin fluorescence, counter-screen for diaphorase-coupled primary assays, primary screen (AID 1217);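 also: plate controls were DMSO with full reaction for no effect and wells lacking NADH for full effect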
# Settings: diaphorase resazurin-to-resorufin fluorescence, NADH, 16 min; at 20 µM; active compounds read high; bacterial (C. kluyveri) enzyme, not human
# How it was run: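 System: Bacterial diaphorase enzyme (C. kluyveri) | Incubation: 16-min room-temperature incubation before reading | Benchmarks: No-NADH positive control and DMSO neutral control | Measured by: Resorufin fluorescence 544/590 nm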
row,Compound,inhibition
1,O=C(OC1CN2CCC1CC2)C(CO)(c1ccccc1)c1ccccc1 (centres undefined),inactive: 6.1%
2,CN(C)c1cccc(C(=O)NCC2(N(C)C)CCCCC2)c1,inactive: 19.1%
3,COc1cccc(C(=O)NCC2(N3CCCCC3)CCCCC2)c1,inactive: 9.5%
4,Cc1ccccc1C(=O)NCC1(N2CCCCC2)CCCCC1,inactive: 3.4%
5,CN(C)C1CCCC1OC(=O)C(O)(c1ccccc1)c1ccccc1 (centres undefined),inactive: -0.8%
6,CCN1CCCC(OC(=O)C2(O)c3ccccc3C=Cc3ccccc32)C1 (centres undefined),inactive: 4.3%
7,C=CCN1CCN(CCOC(=O)C(O)(c2ccccc2)c2ccccc2)CC1,inactive: 5.9%
8,O=C(NCC1(N2CCCCC2)CCCCC1)c1cc([N+](=O)[O-])ccc1Cl,inactive: -5.3%
9,CC(C)N1C(=O)CC2(CCN(CCOC(=O)C(O)(c3ccccc3)c3ccccc3)CC2)C1=O,inactive: 1.9%
